Experimental data published in PubChem BioAssay (Tox21).
Several values for one entry are separate records, joined by “and”; a condition that tells them apart may be missing. Equal values may be shown once. The list shows a part of the results, in another mix than the full data. Inconclusive results are not listed. Activity calls are given as the source filed them. Unless noted, calls come from the whole dose curve.

By UniProt entry, the sequences of proteins in these tests, tags left out.
UniProt P19793, whole entry: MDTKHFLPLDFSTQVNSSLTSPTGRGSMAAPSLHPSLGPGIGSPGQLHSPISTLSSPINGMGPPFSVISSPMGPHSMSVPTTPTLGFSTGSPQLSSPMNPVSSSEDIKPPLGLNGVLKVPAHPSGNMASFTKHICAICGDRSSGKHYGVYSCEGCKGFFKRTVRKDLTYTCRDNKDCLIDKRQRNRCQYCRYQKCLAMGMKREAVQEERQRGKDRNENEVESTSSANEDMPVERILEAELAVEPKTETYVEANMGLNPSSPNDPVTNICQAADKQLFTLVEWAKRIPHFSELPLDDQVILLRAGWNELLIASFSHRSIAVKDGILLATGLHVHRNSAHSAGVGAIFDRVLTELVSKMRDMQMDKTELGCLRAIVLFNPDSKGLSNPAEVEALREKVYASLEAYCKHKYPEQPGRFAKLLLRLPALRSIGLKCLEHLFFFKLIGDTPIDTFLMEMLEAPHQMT

Assays:
[1] = qHTS assay to identify small molecule agonists of the NFkB signaling pathway (AID 1159509; active = well fitted curve in the direction sought with a large enough effect in the signal ratio in the repeat runs, not every such curve was filed as active; the % refers to the signal ratio; note: % is set by controls: 0 for no effect and ±100 for the full control effect); conditions: NFkB-bla ME-180 cells, beta-lactamase FRET ratio, 5 h; at 61 µM (top of the series)
Method in brief: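 Pathway activation was measured in ME-180 cells stably expressing beta-lactamase under NF-kB response element control. Substrate cleavage was read as the 460/530 nm emission shift after 5 hr compound incubation.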

[2] = qHTS assay to identify small molecule agonists of the NFkB signaling pathway - cell viability counter screen (AID 1159515); conditions: NFkB-bla ME-180 viability, CellTiter-Glo luminescence, 5 h; at 61 µM (top of the series); note: % is set by controls: 0 for no effect and ±100 for the full control effect; nearly all actives have a fitted effect of over 55% in size
Description: National Center for Advancing Translational Sciences [NCATS]
NIH Chemical Genomics Center [NCGC]
U.S. Environmental Protection Agency [EPA]
National Institutes of Environmental Health Sciences [NIEHS]
National Toxicology Program [NTP]
U.S. Food and Drug Administration [FDA]
Transcription factors and their stimulated target gene expression play pivotal roles across many cellular processes including responses to environmental stimuli. Proper regulation of associated pathways is critical to maintain cell health and function. Constitutive activation of transcription factor pathways has been implicated in tumors as it may block cellular functions such as apoptosis and lead to invasion and metastasis. One important transcription factor that stimulates gene expression in response to cytokines, UV radiation, and other stimuli is nuclear factor-kappa B (NFkB). To measure activation of the NFkB pathway, the CellSensor NFkB-bla ME-180 cell line (Life Technologies, Carlsbad, CA) that stably expresses beta-lactamase reporter gene under the regulation of a NF-kB response element was used. This assay allows measurement of the NFkB pathway activity induced by compounds in a ME-180 cell line. This system quantitates NF-kB activity using a FRET-based assay system where beta-lactamase expression disrupts FRET, allowing for fluorescent measurement of activity. This cell line has been used to screen the Tox21 10K compound library and to identify compounds that induce the NFkB pathway activity. The cytotoxicity of the Tox21 compound library against the NFkB-bla ME-180 cell line was tested in parallel by measuring cell viability using the CellTiter-Glo assay in the same wells.
Tox21 Assay Protocol Summary:
NFkB-bla ME-180 cells were dispensed at 2,000 cells/6 uL of assay medium per well into black wall/clear-bottom 1536-well plates using a Multidrop Combi (ThermoFisher Scientific, Waltham, MA) dispenser. After the assay plates were incubated at 37 C and 5% CO2 for an overnight, 23 nL of compounds dissolved in DMSO, positive controls or DMSO only was transferred to the assay plate by a Pintool station (Kalypsys, San Diego, CA). The assay plates were incubated at 37 C and 5% CO2 for 5 hr. One uL of LiveBLAzer B/G FRET substrate (Life Technologies) was added using a Flying Reagent Dispenser (Aurora Discovery, San Diego, CA) and the plates were incubated at room temperature for 1.5 hr. Fluorescence intensity (405 nm excitation, 460 nm and 530 nm emissions) was measured using an Envision plate reader (PerkinElmer, Shelton, CT). For cytotoxicity, 3 ul/well of CellTiter-Glo reagent was added into the assay plates using an FRD. After 30 min incubation at room temperature, the luminescence intensity was measured using a ViewLux plate reader (PerkinElmer).

[3] = qHTS assay to identify small molecule agonists of the endoplasmic reticulum stress response signaling pathway (AID 1159516; active = well fitted activation curve with a large enough effect in the signal ratio in the repeat runs, not every such curve was filed as active; the % refers to the signal ratio; note: % is set by controls: 0 for no effect and ±100 for the full control effect); conditions: ESRE-bla HeLa, ER stress beta-lactamase reporter, 5 h; at 61 µM (top of the series)
Method in brief: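 Ratiometric FRET readout (405 nm excitation; 460 and 530 nm emission) of a beta-lactamase gene driven by the ER stress response element, after 2 hr substrate loading. HeLa ESRE-bla cells were seeded overnight and treated with compounds for only 5 hr at 37 C.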

[4] = qHTS assay to identify small molecule agonists of the endoplasmic reticulum stress response signaling pathway - cell viability counter screen (AID 1159517); conditions: ESRE-bla HeLa viability, CellTiter-Glo luminescence, 5 h; at 61 µM (top of the series); note: % is set by controls: 0 for no effect and ±100 for the full control effect; nearly all actives have a fitted effect of over 50% in size
Method in brief: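 In parallel with the ESRE reporter read, cytotoxicity was scored by CellTiter-Glo luminescence (30 min, room temperature) on HeLa ESRE-bla cells dosed for 5 hr.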

[5] = qHTS assay to identify small molecule antagonists of the retinoid-related orphan receptor gamma (ROR-gamma) signaling pathway - cell viability counter screen (AID 1159520; active = well fitted curve in the direction sought with a large enough effect in the repeat runs; an effect the other way counts as inactive or inconclusive; note: % is set by controls: 0 for no effect and ±100 for the full control effect; nearly all actives have a fitted effect of over 50% in size); conditions: Tet-on RORgamma CHO cells viability, ATP luminescence, 16 h; at 92.4 µM (top of the series)
Description: U.S. Tox21 Program National Center for Advancing Translational Sciences [NCATS] NIH Chemical Genomics Center [NCGC] U.S. Environmental Protection Agency [EPA] National Institutes of Environmental Health Sciences [NIEHS] National Toxicology Program [NTP] U.S. Food and Drug Administration [FDA] Tox21 Assay Overview: Nuclear steroid hormone receptors are involved in many biological processes including inflammatory responses, cell proliferation, and apoptosis. Environmental factors or compounds disrupting these nuclear receptor pathways and gene expression may promote susceptibility to immunotoxicants and autoimmune diseases. One important group of these expression factors are the retinoid-related orphan receptors. To assess compounds that may interfere with the retinoid-related orphan receptor gamma (ROR-gamma) transcription factor, a cell-based luciferase assay was used. The CHO cell-based assay utilizes a TET-inducible ROR expression factor and ROR response element-LUC reporter gene. Reporter gene activity was induced using Doxycycline Hyclate and measured after 16 hr incubation. Tet-on ROR gamma CHO cells were used to screen against the Tox21 10K compound library for cytotoxicity by measuring the viability of the cells based on the quantitation of the ATP.
Tox21 Assay Protocol Summary: Tet-on ROR gamma CHO cells were dispensed at 1,000 cells in 4 uL of culture medium per well into white wall/solid bottom 1536-well plates using a Multidrop Combi (Thermo Scientific, Waltham, MA) dispenser. Following incubation at 37 C and 5% CO2 for 4 hr, 23 nL of compounds dissolved in DMSO, positive controls or DMSO only were transferred by a Pintool station (Kalypsys, San Diego, CA) and after 2 hr incubation at 37 C, one ul of 1 uM (final concentration) of Doxycycline Hyclate was added to all the wells by using a Flying Reagent Dispenser (FRD) (Aurora Discovery, San Diego, CA). […] After 30 min incubation at room temperature, luminescence was quantified on a ViewLux plate reader (Perkin Elmer, Waltham, MA).

[6] = biological target: Nuclear receptor ROR-gamma (Homo sapiens) (UniProt P51449); assay: qHTS assay to identify small molecule antagonists of the retinoid-related orphan receptor gamma (ROR-gamma) signaling pathway (AID 1159521; active = well fitted curve in the direction sought with a large enough effect in the repeat runs; an effect the other way counts as inactive or inconclusive; note: top concentration of the series differs between compounds; % is set by controls: 0 for no effect and ±100 for the full control effect; nearly all actives have a fitted effect of over 50% in size); conditions: Tet-on RORgamma CHO cells, RORE-luciferase, 16 h; at 92.4 µM (top of the series)
[7] = qHTS assay to identify small molecule agonists of the AP-1 signaling pathway - cell viability counter screen (AID 1159525); conditions: ME-180 AP-1-bla cells viability, ATP luminescence, 5 h; note: nearly all actives have a fitted effect of over 55% in size
Method in brief: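 Same-well cytotoxicity counter screen of the Tox21 10K library in ME-180 cells. The readout is ATP-dependent luminescence after 5 h compound treatment. Data are normalised to DMSO and tetra n-octyl ammonium bromide controls.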

[8] = qHTS assay to identify small molecule agonists of the AP-1 signaling pathway (AID 1159526); conditions: ME-180 (cervical carcinoma) AP-1-bla reporter, beta-lactamase FRET ratio, 5 h; at 76.8 µM (top of the series); note: % is set by controls: 0 for no effect and ±100 for the full control effect
[9] = biological target: Retinoic acid receptor RXR-alpha (Homo sapiens) (UniProt P19793); assay: qHTS assay to identify small molecule agonists of the RXR signaling pathway (AID 1159527); conditions: HEK293T RXRa-UAS-bla, beta-lactamase ratio, 16 h; at 76.8 µM (top of the series); note: % is set by controls: 0 for no effect and ±100 for the full control effect; nearly all actives have a fitted effect of over 35% in size
Description: U.S. Tox21 Program National Center for Advancing Translational Sciences [NCATS] NIH Chemical Genomics Center [NCGC] U.S. Environmental Protection Agency [EPA] National Institutes of Environmental Health Sciences [NIEHS] National Toxicology Program [NTP] U.S. Food and Drug Administration [FDA] Tox21 Assay Overview: The Retinoid X receptor (RXR), a nuclear hormone receptor expressed in liver, spleen, placenta, epidermis, central nervous system. These receptors are able to form homo and heterodimers with other nuclear receptors and due to this heterodimerizing ability, RXR functions as master regulators producing diverse physiological effects. Three subtypes of RXR exist; alpha, beta and gamma. […] For quantification of RXR-alpha ligands signaling, GeneBLAzer RXR alpha-UAS-bla HEK 293T (Life Technologies, Carlsbad, CA) cells containing a beta-lactamase reporter-gene under control of Retinoid X receptor-alpha response element were used to screen Tox21 10K library.
Tox21 Assay Protocol Summary: RXR-alpha HEK 293T cells were dispensed at 2,000 cells/6 uL of assay medium containing 2% charcoal-stripped FBS using a Multidrop Combi (ThermoFisher Scientific, Waltham, MA) dispenser. […] Fluorescence intensity (405 nm excitation, 460/530 nm emission) was measured using an Envision plate reader (PerkinElmer, Shelton, CT).

[10] = qHTS assay to identify small molecule agonists of the RXR signaling pathway - cell viability counter screen (AID 1159529; active = well fitted curve in the direction sought with a large enough effect in the repeat runs; an effect the other way counts as inactive or inconclusive; note: % is set by controls: 0 for no effect and ±100 for the full control effect; nearly all actives have a fitted effect of over 50% in size); conditions: RXR-alpha-bla HEK293T viability, CellTiter-Glo, 16 h; at 76.8 µM (top of the series)
Method in brief: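 Cell viability is measured by CellTiter-Glo luminescence, 30 min at room temperature, in wells already read for beta-lactamase. Engineered HEK 293T cells (RXR-alpha-UAS-bla) are dosed 16 hr at 37 C. Tetraoctyl ammonium bromide serves as positive control.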

CCC(=O)N(c1ccccc1)C1(COC)CCN(CCn2nnn(CC)c2=O)CC1
inactive: activation [1] -0.754% | activity, negative = cytotoxic [2] -7.62% | activation [3] 0.711% | activity change, negative = cytotoxicity [4] -24.4% | activity, negative = cytotoxicity [5] -1.03% | activity change, negative = inhibition [6] 16.2% | viability change, negative = cytotoxic ([7]; at 76.8 µM (top of the series)) -1% | activation [8] -0.46% | activation [9] -0.402% | activity change, negative = cytotoxicity [10] 0.847%

CN(CCCl)CCCl
inactive: activation [1] -1.53% and 0.763% | activity, negative = cytotoxic [2] 11.2% and -1.96% | viability change, negative = cytotoxic ([7]; at 35.3 µM (top of the series)) 0.454% | viability change, negative = cytotoxic ([7]; at 76.8 µM (top of the series)) -1.82%

O=[N+]([O-])C(Cl)(Cl)Cl
inactive: activation [1] -0.794% | activity, negative = cytotoxic [2] -5.14% | activation [3] 3.91% | activity change, negative = cytotoxicity [4] -4.46% | activity, negative = cytotoxicity [5] -5.06% | viability change, negative = cytotoxic ([7]; at 76.8 µM (top of the series)) 1.49% | activation [8] -0.153% | activity change, negative = cytotoxicity [10] 8.86%

CCC(=O)N(c1ccccc1)C1(COC)CCN(CCc2cccs2)CC1
inactive: activation [1] -0.175% | activity, negative = cytotoxic [2] -10.5% | activation [3] -4.29% | activity change, negative = cytotoxicity [4] -23.6% | activity, negative = cytotoxicity [5] -0.758% | activity change, negative = inhibition [6] -18.6% | viability change, negative = cytotoxic ([7]; at 76.8 µM (top of the series)) -4.23% | activation [8] 3.3% | activity change, negative = cytotoxicity [10] -14.4%
